Protein sequences, listed by entry. Tags and fused reporters are not part of them.
UniProt P04049, whole entry Y340E/Y341E: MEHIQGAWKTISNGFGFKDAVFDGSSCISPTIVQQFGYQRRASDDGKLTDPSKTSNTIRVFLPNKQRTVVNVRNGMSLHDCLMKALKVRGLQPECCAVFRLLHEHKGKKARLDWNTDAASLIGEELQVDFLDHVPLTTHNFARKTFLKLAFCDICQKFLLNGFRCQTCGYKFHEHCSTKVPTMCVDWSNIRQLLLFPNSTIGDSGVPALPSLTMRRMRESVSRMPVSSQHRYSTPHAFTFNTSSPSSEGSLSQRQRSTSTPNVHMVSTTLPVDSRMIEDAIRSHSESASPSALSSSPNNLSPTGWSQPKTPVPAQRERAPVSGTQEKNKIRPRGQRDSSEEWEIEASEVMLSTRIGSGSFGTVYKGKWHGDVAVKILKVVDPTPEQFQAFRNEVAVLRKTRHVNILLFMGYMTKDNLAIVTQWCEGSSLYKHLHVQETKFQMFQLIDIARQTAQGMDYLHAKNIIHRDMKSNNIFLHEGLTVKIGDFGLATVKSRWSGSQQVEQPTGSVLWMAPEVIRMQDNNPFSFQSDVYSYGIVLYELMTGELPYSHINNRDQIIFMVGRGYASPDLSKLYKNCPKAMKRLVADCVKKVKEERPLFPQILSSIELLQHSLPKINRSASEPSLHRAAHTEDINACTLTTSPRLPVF

In patent US9694016B2 (Novartis AG, priority 2013, dated 2017):

Target: C-Raf FL (full-length C-Raf protein, Y340E and Y341E activating mutations) (Homo sapiens (Human), UniProt P04049, Y340E/Y341E)
Format: biochemical
Details: AlphaScreen, 60 min pre-incubation, reaction 1 hour at room temperature; read-out: c-Raf FL IC-50

| Structure (SMILES) | IC50 [nM] |
| --- | --- |
| Cc1ncc(NC(=O)c2ccnc(C(C)(F)F)c2)cc1-c1cnc(OC(F)F)c(N2CCOCC2)c1 [Example 980, 2-(1,1-difluoroethyl)-N-(6′-(difluoromethoxy)-2-methyl-5′-morpholino-[3,3′-bipyridin]-5-yl)isonicotinamide] | 0.78 |
| Cc1ncc(NC(=O)c2cc(C(C)(C)C#N)ccn2)cc1-c1cnc(OC(F)F)c(N2CCOCC2)c1 [Example 981, 4-(2-cyanopropan-2-yl)-N-(6′-(difluoromethoxy)-2-methyl-5′-morpholino-[3,3′-bipyridin]-5-yl)picolinamide] | 3.17 |
| Cc1ncc(NC(=O)c2ccnc(C(F)F)c2)cc1-c1cnc(OC(F)F)c(N2CCOCC2)c1 [Example 982, N-(6′-(difluoromethoxy)-2-methyl-5′-morpholino-[3,3′-bipyridin]-5-yl)-2-(difluoromethyl)isonicotinamide] | 1.1 |
| CCC(F)(F)c1cc(C(=O)Nc2cnc(C)c(-c3cnc(OC(F)F)c(N4CCOCC4)c3)c2)ccn1 [Example 983, N-(6′-(difluoromethoxy)-2-methyl-5-morpholino-[3,3′-bipyridin]-5-yl)-2-(1,1-difluoropropyl)isonicotinamide] | 1.43 |
| Cc1ncc(NC(=O)c2cccc(C(F)(F)F)c2)cc1-c1cnc(OC[C@@H](C)O)c(N2CCOCC2)c1 [Example 984, (R)—N-(6′-(2-hydroxypropoxy)-2-methyl-5′-morpholino-[3,3′-bipyridin]-5-yl)-3-(trifluoromethyl)benzamide] | 0.51 |
| Cc1ncc(NC(=O)c2cccc(C(F)(F)F)c2)cc1-c1cnc(O[C@@H](C)CO)c(N2CCOCC2)c1 [Example 985, (S)—N-(6′-((1-hydroxypropan-2-yl)oxy)-2-methyl-5′-morpholino-[3,3′-bipyridin]-5-yl)-3-(trifluoromethyl)benzamide] | 0.6 |
| Cc1ncc(NC(=O)c2cccc(C(F)(F)F)c2)cc1-c1cnc(N(C)CCO)c(N2CCOCC2)c1 [Example 986, N-(6′-((2-hydroxyethyl)(methyl)amino)-2-methyl-5′-morpholino-[3,3′-bipyridin]-5-yl)-3-(trifluoromethyl)benzamide] | 0.28 |
| CNC(=O)c1ncc(-c2cc(NC(=O)c3ccnc(C(C)(F)F)c3)ccc2C)cc1N1CCOCC1 [Example 987, 5-(5-(2-(1,1-difluoroethyl)isonicotinamido)-2-methylphenyl)-N-methyl-3-morpholinopicolinamide] | 0.8 |
| Cc1ccc(NC(=O)c2ccnc(S(C)(=O)=O)c2)cc1-c1cnc(OC[C@H](C)O)c(N2CCOCC2)c1 [Example 989, (S)—N-(3-(6-(2-hydroxypropoxy)-5-morpholinopyridin-3-yl)-4-methylphenyl)-2-(methylsulfonyl)isonicotinamide] | 0.56 |
| Cc1ncc(NC(=O)c2ccnc(C(C)(C)F)c2)cc1-c1cnc(OC[C@H](C)O)c(N2CCOCC2)c1 [Example 990, (S)-2-(2-fluoropropan-2-yl)-N-(6′-(2-hydroxypropoxy)-2-methyl-5-morpholino-[3,3′-bipyridin]-5-yl)isonicotinamide] | 2 |
| Cc1ccc(NC(=O)c2ccnc(C(F)(F)F)c2)cc1-c1cc(NC[C@@H](C)O)nc(N2CCOCC2)c1 [Example 991, (R)—N-(3-(2-((2-hydroxypropyl)amino)-6-morpholinopyridin-4-yl)-4-methylphenyl)-2-(trifluoromethyl)isonicotinamide] | 0.76 |
| Cc1ncc(NC(=O)c2cccc(C(F)(F)F)c2)cc1-c1cnc(OCC2COCCO2)c(N2CCOCC2)c1 (stereo not drawn) [Example 992] | 0.97 |
| Cc1ncc(NC(=O)c2cccc(C(F)(F)F)c2)cc1-c1cnc(CC2(O)CCOCC2)c(N2CCOCC2)c1 [Example 993, N-(6′-((4-hydroxytetrahydro-2H-pyran-4-yl)methyl)-2-methyl-5′-morpholino-[3,3′-bipyridin]-5-yl)-3-(trifluoromethyl)benzamide] | 2.49 |
| Cc1ncc(NC(=O)c2cccc(C(F)(F)F)c2)cc1-c1cnc(C=C2CCOCC2)c(N2CCOCC2)c1 [Example 994, N-(6′-((dihydro-2H-pyran-4(3H)-ylidene)methyl)-2-methyl-5′-morpholino-[3,3′-bipyridin]-5-yl)-3-(trifluoromethyl)benzamide] | 0.66 |
| Cc1ccc(NC(=O)c2ccnc(C(C)(C)F)c2)cc1-c1cnc(OCCO)c(N2CCOCC2)c1 [Example 997, 2-(2-fluoropropan-2-yl)-N-(3-(6-(2-hydroxyethoxy)-5-morpholinopyridin-3-yl)-4-methylphenyl)isonicotinamide] | 0.44 |
| Cc1ccc(NC(=O)c2ccnc(C(C)(C)C#N)c2)cc1-c1cnc(OCCO)c(N2CCOCC2)c1 [Example 998, 2-(2-cyanopropan-2-yl)-N-(3-(6-(2-hydroxyethoxy)-5-morpholinopyridin-3-yl)-4-methylphenyl)isonicotinamide] | 0.7 |
| Cc1ccc(NC(=O)c2ccnc(C3CC3)c2)cc1-c1cnc(OCCO)c(N2CCOCC2)c1 [Example 999, 2-cyclopropyl-N-(3-(6-(2-hydroxyethoxy)-5-morpholinopyridin-3-yl)-4-methylphenyl)isonicotinamide] | 0.19 |

| Structure (SMILES) | IC50 [nM] |
| --- | --- |
| Cc1ccc(NC(=O)c2ccnc(C(C)(F)F)c2)cc1-c1cnc(OCCO)c(N2CCOCC2)c1 [Example 1000, 2-(1,1-difluoroethyl)-N-(3-(6-(2-hydroxyethoxy)-5-morpholinopyridin-3-yl)-4-methylphenyl)isonicotinamide] | 0.51 |
| Cc1ccc(NC(=O)c2cncc(C(F)(F)F)c2)cc1-c1cnc(OCCO)c(N2CCOCC2)c1 [Example 1001, N-(3-(6-(2-hydroxyethoxy)-5-morpholinopyridin-3-yl)-4-methylphenyl)-5-(trifluoromethyl)nicotinamide] | 0.31 |
| Cc1ccc(NC(=O)c2ccnc(C(F)(F)F)c2)cc1-c1cnc(OCCO)c(N2CCOCC2)c1 [Example 1002, N-(3-(6-(2-hydroxyethoxy)-5-morpholinopyridin-3-yl)-4-methylphenyl)-2-(trifluoromethyl)isonicotinamide] | 0.41 |
| Cc1ncc(NC(=O)c2cnnc(C(F)(F)F)c2)cc1-c1cc(NCCO)nc(N2CCOCC2)c1F [Example 1004, N-(3′-fluoro-6′-((2-hydroxyethyl)amino)-2-methyl-2′-morpholino-[3,4′-bipyridin]-5-yl)-6-(trifluoromethyl)pyridazine-4-carboxamide] | 14 |
| Cc1ccc(NC(=O)c2ccnc(C(F)(F)F)c2)cc1-c1cc(N2CCOCC2)nc(NCCO)c1F [Example 1006, N-(3-(3-fluoro-2-((2-hydroxyethyl)amino)-6-morpholinopyridin-4-yl)-4-methylphenyl)-2-(trifluoromethyl)isonicotinamide] | 1.14 |
| Cc1ccc(NC(=O)c2cnnc(C(F)(F)F)c2)cc1-c1cc(N2CCOCC2)nc(NCCO)c1F [Example 1007, N-(3-(3-fluoro-2-((2-hydroxyethyl)amino)-6-morpholinopyridin-4-yl)-4-methylphenyl)-6-(trifluoromethyl)pyridazine-4-carboxamide] | 1.14 |
| Cc1ccc(NC(=O)c2ccnc(C(F)(F)F)c2)cc1-c1cc(NCCO)nc(N2CCOCC2)c1F [Example 1008, N-(3-(3-fluoro-6-((2-hydroxyethyl)amino)-2-morpholinopyridin-4-yl)-4-methylphenyl)-2-(trifluoromethyl)isonicotinamide] | 2.77 |
| Cc1ccc(NC(=O)c2ccnc(C(F)F)c2)cc1-c1cc(NCCO)nc(N2CCOCC2)c1F [Example 1009, 2-(difluoromethyl)-N-(3-(3-fluoro-6-((2-hydroxyethyl)amino)-2-morpholinopyridin-4-yl)-4-methylphenyl)isonicotinamide] | 2.63 |
| Cc1ccc(NC(=O)c2ccnc(C(C)(C)O)c2)cc1-c1cc(NCCO)nc(N2CCOCC2)c1F [Example 1010, N-(3-(3-fluoro-6-((2-hydroxyethyl)amino)-2-morpholinopyridin-4-yl)-4-methylphenyl)-2-(2-hydroxypropan-2-yl)isonicotinamide] | 4.47 |
| Cc1ccc(NC(=O)c2ccnc(C3(C#N)CC3)c2)cc1-c1cc(NCCO)nc(N2CCOCC2)c1F [Example 1011, 2-(1-cyanocyclopropyl)-N-(3-(3-fluoro-6-((2-hydroxyethyl)amino)-2-morpholinopyridin-4-yl)-4-methylphenyl)isonicotinamide] | 3.81 |
| Cc1ccc(NC(=O)c2cnnc(C(C)(C)C#N)c2)cc1-c1cc(NCCO)nc(N2CCOCC2)c1F [Example 1012, 6-(2-cyanopropan-2-yl)-N-(3-(3-fluoro-6-((2-hydroxyethyl)amino)-2-morpholinopyridin-4-yl)-4-methylphenyl)pyridazine-4-carboxamide] | 18.7 |
| Cc1ccc(NC(=O)c2cnnc(C(F)(F)F)c2)cc1-c1cc(NCCO)nc(N2CCOCC2)c1F [Example 1013, N-(3-(3-fluoro-6-((2-hydroxyethyl)amino)-2-morpholinopyridin-4-yl)-4-methylphenyl)-6-(trifluoromethyl)pyridazine-4-carboxamide] | 1.99 |
| Cc1ccc(NC(=O)c2ccnc(C(F)(F)F)c2)cc1-c1c(F)c(NCCO)nc(N2CCOCC2)c1F [Example 1014, N-(3-(3,5-difluoro-2-((2-hydroxyethyl)amino)-6-morpholinopyridin-4-yl)-4-methylphenyl)-2-(trifluoromethyl)isonicotinamide] | 2.43 |
| Cc1ccc(NC(=O)c2cnnc(C(F)(F)F)c2)cc1-c1c(F)c(NCCO)nc(N2CCOCC2)c1F [Example 1015, N-(3-(3,5-difluoro-2-((2-hydroxyethyl)amino)-6-morpholinopyridin-4-yl)-4-methylphenyl)-6-(trifluoromethyl)pyridazine-4-carboxamide] | 4.97 |
| Cc1ccc(NC(=O)c2ccnc(C(F)F)c2)cc1-c1cc(N2CCOCC2)nc(NCCO)c1F [Example 1016, 2-(difluoromethyl)-N-(3-(3-fluoro-2-((2-hydroxyethyl)amino)-6-morpholinopyridin-4-yl)-4-methylphenyl)isonicotinamide] | 0.7 |
| COc1nnc(-c2cc(C(=O)Nc3ccnc(C(F)(F)F)c3)ccc2C)cc1N1CCOCC1 [Example 1017, 3-(6-methoxy-5-morpholinopyridazin-3-yl)-4-methyl-N-(2-(trifluoromethyl)pyridin-4-yl)benzamide] | 0.35 |
